Source: patent US5262403A, “Glycosaminoglycan derivatives and their use as inhibitors of tumor invasiveness of metastatic profusion-II” (priority 1990, dated 1993)

Test system: B16-BL6 melanoma cells

incorporation of 3H-thymidine to B16 cells: no significant effects
Substance: N-resulfated N- and O-desulfated heparin
